Data on 1 molecule can be found in ChEMBL document CHEMBL1614630, “Extrapolation of preclinical pharmacokinetics and molecular feature analysis of "discovery-like" molecules to predict human pharmacokinetics” (Drug Metab Dispos, 2006).

Each structure is given as a SMILES string.

The data set is described as follows: Clearance in rat after iv administration. Conditions: in vivo.

As a reminder, the clearance is the rate of elimination divided by the concentration. As to `OC(CCN1CCCCC1)(c1ccccc1)C1CC2C=CC1C2` (stereo unspecified) [BIPERIDEN], the clearance was found to be 68 mL/min/kg.
